According to patent US9155743B2, “Bicyclic heterocycle compounds and their uses in therapy” (priority 2011, dated 2015):

How the values were obtained:
XIAP or cIAP1 = test: Assays using XIAP and cIAP1 (result stated for XIAP or cIAP1); type: binding, human
cIAP-1 BIR3 domain = cIAP-1 BIR3 domain (Homo sapiens (Human), UniProt Q13490); test: cIAP-1 in vitro competitive displacement binding assay (fluorescence polarization); details: AbuRPFK(5&6FAM)-amide probe (Probe B); given as ranges; read-out: IC50 or PI cIAP1
[1] = system: EVSA-T (human breast carcinoma); test: Anti-proliferative activity, Alamar Blue assay, EVSA-T; type: cell-based
[2] = read-out: IC50 or at least 50% inhibition of the activity at a concentration of 1 μM
[3] = read-out: IC50 or at least 50% inhibition of the activity at a concentration of 10 μM
[4] = 72 h, read-out: EC50 or PI EVSA-T prolif
[5] = read-out: EC50 or greater than 50% at 10 μM

Question: For `CCC1(CC)Oc2nc(NC(=O)[C@H](C)NC)ccc2N(c2ccc(Cl)cc2)C1=O` [Example 5, (S)—N-[1-(4-Chloro-phenyl)-3,3-diethyl-2-oxo-2,3-dihydro-1H-pyrido[2,3-b][1,4]oxazin-6-yl]-2-methylamino-propionamide hydrochloride], which IC50 (XIAP or cIAP1; [2]) is on record?
Answer: < 1000 nM

Question: What about the IC50 (XIAP or cIAP1; [3]) of the same compound?
Answer: < 10000 nM

Question: And the IC50 (cIAP-1 BIR3 domain)?
Answer: 10 to 1000 nM

Question: What does the source list for `CN[C@@H](C)C(=O)Nc1ccc2c(n1)OC(C)(C)C(=O)N2c1cccc(Cl)c1` [Example 10, (S)—N-[1-(3-Chloro-phenyl)-3,3-dimethyl-2-oxo-2,3-dihydro-1H-pyrido[2,3-b][1,4]oxazin-6-yl]-2-methylamino-propionamide hydrochloride]?
Answer: EC50 [1, 4]: 92 nM; EC50 [1, 5]: < 10000 nM

Question: With `CN[C@@H](C)C(=O)Nc1ccc2c(n1)OC(C)(Cc1ccccc1)C(=O)N2c1cccc(Cl)c1` (stereo partly drawn) [Example 11, (S)-N-[3-Benzyl-1-(3-chloro-phenyl)-3-methyl-2-oxo-2,3-dihydro-1H-pyrido[2,3-b][1,4]oxazin-6-yl]-2-methylamino-propionamide hydrochloride] as the compound, how does the EC50 [1, 4] read?
Answer: 110 nM

Question: And the EC50 [1, 5]?
Answer: < 10000 nM

Question: What does the source list for `CN[C@@H](C)C(=O)Nc1ccc2c(n1)OC(C)(CC(C)C)C(=O)N2c1cccc(Cl)c1` (stereo partly drawn) [Example 12, (S)—N-[1-(3-Chloro-phenyl)-3-isobutyl-3-methyl-2-oxo-2,3-dihydro-1H-pyrido[2,3-b][1,4]oxazin-6-yl]-2-methylamino-propionamide]?
Answer: EC50 [1, 4]: 110 nM; EC50 [1, 5]: < 10000 nM

Question: What does the source list for `CN[C@@H](C)C(=O)Nc1ccc2c(n1)OC(C)(CCC(C)C)C(=O)N2c1ccccc1` (stereo partly drawn) [Example 14, (S)-2-Methylamino-N-[3-methyl-3-(3-methyl-butyl)-2-oxo-1-phenyl-2,3-dihydro-1H-pyrido[2,3-b][1,4]oxazin-6-yl]-propionamide hydrochloride]?
Answer: IC50 (XIAP or cIAP1; [2]): < 1000 nM; IC50 (XIAP or cIAP1; [3]): < 10000 nM

Question: Which EC50 [1, 4] does the source give for `CN[C@@H](C)C(=O)Nc1ccc2c(n1)CN(Cc1ccccc1)C(=O)N2c1ccccc1` [Example 18, (S)—N-(3-Benzyl-2-oxo-1-phenyl-1,2,3,4-tetrahydro-pyrido[3,2-d]pyrimidin-6-yl)-2-methylamino-propionamide hydrochloride] here?
Answer: 860 nM

Question: With `CN[C@@H](C)C(=O)Nc1ccc2c(n1)CNC(=O)N2c1ccccc1` [Example 19, (S)-2-Methylamino-N-(2-oxo-1-phenyl-1,2,3,4-tetrahydro-pyrido[3,2-d]pyrimidin-6-yl)-propionamide hydrochloride] as the compound, how does the EC50 [1, 4] read?
Answer: 3000 nM

Question: Which results are given for `CN[C@@H](C)C(=O)Nc1ccc2c(n1)CN(c1ccc(Cl)cc1)C(=O)N2c1ccc(Cl)cc1` [Example 21, (S)—N-[1,3-Bis-(4-chloro-phenyl)-2-oxo-1,2,3,4-tetrahydro-pyrido[3,2-d]pyrimidin-6-yl]-2-methylamino-propionamide hydrochloride]?
Answer: EC50 [1, 4]: 910 nM; EC50 [1, 5]: < 10000 nM

Question: Which results are given for `CN[C@@H](C)C(=O)Nc1ccc2c(n1)CNC(=O)N2c1ccc(Cl)cc1` [Example 22, (S)—N-[1-(4-Chloro-phenyl)-2-oxo-1,2,3,4-tetrahydro-pyrido[3,2-d]pyrimidin-6-yl]-2-methylamino-propionamide hydrochloride]?
Answer: EC50 [1, 4]: 690 nM; EC50 [1, 5]: < 10000 nM

Question: With `CN[C@@H](C)C(=O)Nc1ccc2c(n1)CN(c1ccccc1)C(=O)N2c1ccccc1` [Example 23, (S)-2-Methylamino-N-(2-oxo-1,3-diphenyl-1,2,3,4-tetrahydro-pyrido[3,2-d]pyrimidin-6-yl)-propionamide hydrochloride] as the compound, how does the EC50 [1, 4] read?
Answer: 1400 nM

Question: And the EC50 [1, 5]?
Answer: < 10000 nM

Question: Which results are given for `CN[C@@H](C)C(=O)Nc1ccc2c(n1)CN(C)C(=O)N2c1ccc(Cl)cc1` [Example 26, (S)—N-[1-(4-Chloro-phenyl)-3-methyl-2-oxo-1,2,3,4-tetrahydro-pyrido[3,2-d]pyrimidin-6-yl]-2-methylamino-propionamide hydrochloride]?
Answer: EC50 [1, 4]: 1600 nM; EC50 [1, 5]: < 10000 nM

Question: For `CN[C@@H](C)C(=O)Nc1ccc2c(n1)CN(c1cc(Cl)ccc1F)C(=O)N2c1ccccc1` [Example 27, (S)—N-[3-(5-Chloro-2-fluoro-phenyl)-2-oxo-1-phenyl-1,2,3,4-tetrahydro-pyrido[3,2-d]pyrimidin-6-yl]-2-methylamino-propionamide hydrochloride], which EC50 [1, 4] is on record?
Answer: 1200 nM

Question: And the EC50 [1, 5]?
Answer: < 10000 nM

Question: `CCCN1Cc2nc(NC(=O)[C@H](C)NC)ccc2N(c2ccccc2)C1=O` [Example 28, (S)-2-Methylamino-N-(2-oxo-1-phenyl-3-propyl-1,2,3,4-tetrahydro-pyrido[3,2-d]pyrimidin-6-yl)-propionamide hydrochloride] was tested. Which EC50 [1, 4] did it give?
Answer: 2200 nM

Question: What about the EC50 [1, 5] of the same compound?
Answer: < 10000 nM

Question: With `CN[C@@H](C)C(=O)Nc1ccc2c(n1)CN(C1CCCCC1)C(=O)N2c1ccc(Cl)cc1` [Example 29, (S)—N-[1-(4-Chloro-phenyl)-3-cyclohexyl-2-oxo-1,2,3,4-tetrahydro-pyrido[3,2-d]pyrimidin-6-yl]-2-methylamino-propionamide hydrochloride] as the compound, how does the EC50 [1, 4] read?
Answer: 340 nM

Question: And the EC50 [1, 5]?
Answer: < 10000 nM

Question: `CN[C@@H](C)C(=O)Nc1ccc2c(n1)CN(C1CCCC1)C(=O)N2c1ccc(Cl)cc1` [Example 30, (S)-N-[1-(4-Chloro-phenyl)-3-cyclopentyl-2-oxo-1,2,3,4-tetrahydro-pyrido[3,2-d]pyrimidin-6-yl]-2-methylamino-propionamide hydrochloride] was tested. Which EC50 [1, 4] did it give?
Answer: 390 nM

Question: And the EC50 [1, 5]?
Answer: < 10000 nM

Question: For `CN[C@@H](C)C(=O)Nc1ccc2c(n1)CN(C(C)C)C(=O)N2c1ccc(Cl)cc1` [Example 31, (S)-N-[1-(4-Chloro-phenyl)-3-isopropyl-2-oxo-1,2,3,4-tetrahydro-pyrido[3,2-d]pyrimidin-6-yl]-2-methylamino-propionamide hydrochloride], which EC50 [1, 4] is on record?
Answer: 490 nM

Question: What about the EC50 [1, 5] of the same compound?
Answer: < 10000 nM

Question: Which results are given for `CN[C@@H](C)C(=O)Nc1ccc2c(n1)CN(C(C)C)C(=O)N2c1cccc(Cl)c1` [Example 32, (S)-N-[1-(3-Chloro-phenyl)-3-isopropyl-2-oxo-1,2,3,4-tetrahydro-pyrido[3,2-d]pyrimidin-6-yl]-2-methylamino-propionamide hydrochloride]?
Answer: EC50 [1, 4]: 1600 nM; EC50 [1, 5]: < 10000 nM

Question: For `CN[C@@H](C)C(=O)Nc1ccc2c(n1)CN(C(C)CC(C)C)C(=O)N2c1ccc(Cl)cc1` (stereo partly drawn) [Example 34, (S)-N-[1-(4-Chloro-phenyl)-3-(1,3-dimethyl-butyl)-2-oxo-1,2,3,4-tetrahydro-pyrido[3,2-d]pyrimidin-6-yl]-2-methylamino-propionamide hydrochloride], which EC50 [1, 4] is on record?
Answer: 240 nM

Question: And the EC50 [1, 5]?
Answer: < 10000 nM

Question: `CN[C@@H](C)C(=O)Nc1ccc2c(n1)CN(C(C)CC(C)(C)C)C(=O)N2c1cccc(Cl)c1` (stereo partly drawn) [Example 39, (S)-N-[1-(3-Chloro-phenyl)-2-oxo-3-(1,3,3-trimethyl-butyl)-1,2,3,4-tetrahydro-pyrido[3,2-d]pyrimidin-6-yl]-2-methylamino-propionamide] was tested. Which EC50 [1, 4] did it give?
Answer: 990 nM

Question: What about the EC50 [1, 5] of the same compound?
Answer: < 10000 nM

Question: Which results are given for `CN[C@@H](C)C(=O)Nc1ccc2c(n1)CN(CCc1ccccc1)C(=O)N2c1ccc(Cl)cc1` [Example 41, (S)—N-[1-(4-Chloro-phenyl)-2-oxo-3-phenethyl-1,2,3,4-tetrahydro-pyrido[3,2-d]pyrimidin-6-yl]-2-methylamino-propionamide hydrochloride]?
Answer: EC50 [1, 4]: 2500 nM; EC50 [1, 5]: < 10000 nM

Structures can show the parent of a compound that is named as a salt. Where two headings read alike, the source gives them in different places.
